Reference: patent publication US9284299B2, “Substituted 1H-indazol-1-ol analogs as inhibitors of beta catenin/Tcf protein-protein interactions” (UNIVERSITY OF UTAH RESEARCH FOUNDATION, priority 2012, dated 2016)

Sequences of proteins named here, by UniProt entry; tags and fusion partners are left off. Residues count along the entry.
UniProt P35222, 138-686: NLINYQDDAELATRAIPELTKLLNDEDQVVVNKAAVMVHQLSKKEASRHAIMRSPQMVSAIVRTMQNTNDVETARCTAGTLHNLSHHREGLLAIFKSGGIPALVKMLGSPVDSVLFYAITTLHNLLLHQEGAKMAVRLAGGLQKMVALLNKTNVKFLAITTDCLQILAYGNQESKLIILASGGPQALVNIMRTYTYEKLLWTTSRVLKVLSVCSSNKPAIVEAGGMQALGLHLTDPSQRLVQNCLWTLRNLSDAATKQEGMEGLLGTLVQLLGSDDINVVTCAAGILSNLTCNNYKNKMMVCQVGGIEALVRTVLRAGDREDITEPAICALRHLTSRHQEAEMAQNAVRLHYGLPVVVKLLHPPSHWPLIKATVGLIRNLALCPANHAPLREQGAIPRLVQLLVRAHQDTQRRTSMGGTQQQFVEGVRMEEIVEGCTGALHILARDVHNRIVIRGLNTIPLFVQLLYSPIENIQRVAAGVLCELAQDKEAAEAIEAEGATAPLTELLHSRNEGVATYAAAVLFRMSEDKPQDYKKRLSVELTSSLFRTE

Molecular target: β-catenin/Tcf4 interaction (Homo sapiens (Human), UniProt P35222)
Experiment: Fluorescence polarization (FP) competitive inhibition assay, β-catenin/Tcf4
Assay type: binding
Details: Table 2; mean ± standard deviation (n=3)
Protocol: Experiments were performed in 96-well Microfluor 2 black plates (Waltham, Mass.), and the samples were read by a Synergy 2 plate reader (Biotek, Winooski, Vt.). […] The final reaction volume is 100 μL.
In the foregoing equation, mP, is the signal of the positive control; mPbound is the signal of the negative control; and mP is the signal of the tested inhibitor compound.

| Compound | Ki [µM] |
| --- | --- |
| O=C(c1cccnc1)N(Cc1nn[nH]n1)c1ccc2c(cnn2O)c1 [Compound 21, N-((2H-TETRAZOL-5-YL)METHYL)-N-(1-HYDROXY-1H-INDAZOL-5-YL)NICOTINAMIDE] | 180 ± 2.91 |
| c1cc2[nH]ncc2cc1CCc1nn[nH]n1 [Compound 16, 5-(2-(2H-TETRAZOL-5-YL)ETHYL)-1H-INDAZOLE] | 180 ± 2.91 |
